Apparent affinities of Ab-14 variants for a coronavirus HR2 peptide

Values reported by Li et al. 2023, doi:10.1038/s41467-023-39022-2 (FLAb copy).

Target: peptide PDVDLGDISGINAS, taken from heptad repeat 2 (HR2) of SARS-CoV-2 spike.

Ab-14 is the parent antibody, in scFv form: VH, then a (GGGGS)3 linker, then VL. The heavy chain is unchanged in all variants.
VH: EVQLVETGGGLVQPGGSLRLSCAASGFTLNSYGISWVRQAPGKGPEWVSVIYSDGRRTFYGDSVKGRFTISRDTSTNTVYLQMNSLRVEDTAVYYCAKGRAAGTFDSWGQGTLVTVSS
VL: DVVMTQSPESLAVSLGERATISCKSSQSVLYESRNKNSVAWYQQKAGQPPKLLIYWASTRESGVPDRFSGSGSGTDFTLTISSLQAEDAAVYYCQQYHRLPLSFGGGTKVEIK

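Designed CDR sequences, proposed from the first random library and measured here. Several design methods are mixed in this list. Affinity was read by AlphaSeq, a pooled yeast mating assay with surface-displayed partners. Pairs that bind mate more often; barcode pairs of the diploids are counted by sequencing. The ratio of observed to expected reads was calibrated, replicate by replicate, on BCL2-family standards whose Kd was known from biolayer interferometry. The assay was run in six technical replicates.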

The parent's light chain CDRs are KSSQSVLYESRNKNSVA, WASTRES, QQYHRLPLS; each variant's own CDRs replace them letter for letter. This list holds designs with more than six substitutions. Each Kd is an estimate from the mating assay, the geometric mean of the replicates in which the pair was seen; lower is stronger. "no signal" means that the variant was in the library but no mating with the target was seen in any replicate; the authors take this as a sign of poor binding, and no number exists. In the paper, a design with two or fewer of six values counts as a poor binder. Of ten entries with the parent sequence, four were seen in most replicates (averages 2.2 nM to 240 nM), three in one and three in none, so single entries are noisy. Three control strains display no target. For all light chain designs, 4% of the pairings with them gave a signal, with a median of 430 nM and one signal in twenty below 38 nM, so weak values seen in few replicates may be background. The control count says in how many pairings with the empty strains this scFv gave a signal. A sequence measured in both rounds can read differently, since the two assays cover different ranges.

Variant KFQGMVHMGDRNKNSVA | WASTRLQ | QQYHRLPLS gave 44 nM (1 of 6 replicates; controls 0 of 18). For KITATMRFEQKESNNIA | EVTQRSK | QQYYRLPLS, the assay gave 5.6 nM (6 of 6 replicates; controls 0 of 18). Variant TIGQMFNGESRMRNSVA | QASTRES | QSYDRLPLS showed 28 nM (6 of 6 replicates; controls 0 of 18). Variant HLHTIMYTEGIGTNSIA | DANLHVT | QQYFRLPIM gave 18 nM (6 of 6 replicates; controls 1 of 18). For KLSGSWLYESRVKNNVA | DAHQRES | QMYHRLPLS, the assay gave 22 nM (6 of 6 replicates; controls 0 of 18). Variant KLGGEQQNSTYEMDNVA | DVNTTFE | QHYSRLPLT gave no signal (0 of 6 replicates; controls 1 of 18). For KISQMVRVGSTHSNSIA | EEATRSD | QQYHRLPLS, the assay gave 3.4 nM (6 of 6 replicates; controls 2 of 18). Variant QLQIEPNGYMGMRSNVA | DGVMVRM | QQYARLPLM showed 2.1 nM (6 of 6 replicates; controls 0 of 18). Variant KLSMSMRYESEQKNSIA | ELVTRMS | QQYHRLPLS gave 6.7 nM (6 of 6 replicates; controls 1 of 18).

Variant KLEQSQLYGSRNKNSVA | NASQRER | QQYHRLPLS showed 8.3 nM (6 of 6 replicates; controls 0 of 18). Variant KVEMGVDDLERNDNSVA | WASTRES | QQYHRLPLS gave 26 nM (6 of 6 replicates; controls 1 of 18). For KMSESWLYESQNSNNVA | HASQRMS | QQYHRLPLS, the assay gave 1.2 nM (6 of 6 replicates; controls 1 of 18). For KLLQVTENMSLNRNSVA | HMSTRED | QQYNRLPLS, the assay gave 4.1 nM (6 of 6 replicates; controls 0 of 18). For MISQLWNMGQFAINSVA | QASIRNS | QQYDRLPLI, the assay gave no signal (0 of 6 replicates; controls 0 of 18). With SISGFMKSLAAHMNSVA | DMTNRED | QQYNRLPLS the result was 810 pM (6 of 6 replicates; controls 0 of 18). Variant KCEISVMQWDRNKNSVA | NASCRES | QQYHRLPLS gave 10 nM (6 of 6 replicates; controls 1 of 18). With KLYQVTGYESYVRNSVA | QMSTRAE | QDYHRLPLS the result was 4.0 nM (6 of 6 replicates; controls 0 of 18). With KIGATLNMMMHKKNNVA | DLVTREN | QQYHRLPLS the result was 7.5 nM (6 of 6 replicates; controls 0 of 18).

Variant QTTAFYQHGYDQNQAMA | DVTMRDQ | QQYERLPLS showed 17 nM (6 of 6 replicates; controls 2 of 18). Variant LVDQSQLYEQRNKNSVA | SASLRES | QQYHRLPLS showed 1.3 nM (6 of 6 replicates; controls 0 of 18). Variant KVSQGIFDGKRNSHSIA | EVTELCT | QQYSRLPLE gave 1.6 nM (6 of 6 replicates; controls 0 of 18). With MISQMYNMGQFAINSVA | QASQRNE | QQYDRLPLI the result was 160 nM (6 of 6 replicates; controls 1 of 18). With KVFQSGPYEQRNQNSVA | SASTREN | QQYHRLPLS the result was 1.4 nM (6 of 6 replicates; controls 1 of 18). Variant KLSQATRLESRNKASVA | ENSTRES | QQYFRLPLS gave 740 pM (6 of 6 replicates; controls 3 of 18). Variant KLSQITGHMSVSKNNVA | EMETREN | QQYDRLPLS gave 22 nM (6 of 6 replicates; controls 0 of 18). With QVVDEQWAEGQNIQSIA | EGEVRKD | QQYNRLPLS the result was 97 nM (1 of 6 replicates; controls 0 of 18). Variant TISNSFMMENQFKNSVA | QASTRLN | QCYDRLPLS gave 5.6 nM (6 of 6 replicates; controls 0 of 18).

Variant TISNSFMMENQFKNSVA | QASTREK | QCYDRLPLS gave 770 nM (2 of 6 replicates; controls 1 of 18). With MISQLYNMGTFAINSVA | QAETRNE | QQYDRLPLM the result was 120 nM (6 of 6 replicates; controls 0 of 18). With KISMLYNFAQTNKNSIA | EMTTREA | QHYHRLPLS the result was 3.8 nM (6 of 6 replicates; controls 2 of 18). Variant FFSLIQDSVGEAKNSIA | ERNTKAH | QQYSRLPLV showed 15 nM (6 of 6 replicates; controls 2 of 18). For QLDWYNSTATASANSVA | DVAQRMN | QQYMRLPLM, the assay gave 12 nM (6 of 6 replicates; controls 1 of 18). Variant KLSTSVDYEDRNCNAVA | AASTREE | QQYHRLPLS gave 1.3 nM (6 of 6 replicates; controls 1 of 18). Variant QVQAIHEHEKDQNQAMA | EASMRDA | QQYERLPLS showed 13 nM (6 of 6 replicates; controls 3 of 18). With SISGFMKSLSAHINNVA | DMTNRED | QQYDKLPLS the result was 2.1 nM (6 of 6 replicates; controls 0 of 18). With MLRCDITDGQKNWNNIA | ETSELGA | QQYAHLPLG the result was no signal (0 of 6 replicates; controls 0 of 18).

Variant QIDHPELTFQQNQYSIA | NASQSLD | QQYAQLPLM gave 8.4 nM (5 of 6 replicates; controls 1 of 18). With TISQSAYWESRNKNSVA | QTSTREE | QDYDRLPLS the result was 49 nM (6 of 6 replicates; controls 1 of 18). Variant KVDQSVLGQSRNKNAVA | AASTRED | QQYHRLPLS gave 670 pM (6 of 6 replicates; controls 1 of 18). With MVTQMAMTGMKNKRSVA | NAEMREY | QQYHRLPLI the result was 67 nM (2 of 6 replicates; controls 1 of 18). With TLYGLSMSMSRNKNNVA | EMTTREK | QQYDRLPLV the result was 6.2 nM (6 of 6 replicates; controls 1 of 18). Variant KLSQSQCYESRNKNNVA | QASDRMS | QQYHRLPLS showed 1.1 nM (6 of 6 replicates; controls 1 of 18). With RVQQWSGHSDMHWKSIA | SASLRAQ | QQYARLPLE the result was 16 nM (6 of 6 replicates; controls 1 of 18). With NLSGHQYNNSQKKNSIA | EDNNIRL | QQYHRLPFM the result was 700 nM (2 of 6 replicates; controls 1 of 18). Variant TLYGLTNSMSKNKDSVA | EMTTREA | QQYDRLPLA showed 120 nM (6 of 6 replicates; controls 2 of 18).

With KLMQLQDYESRNKNSVA | HASQREQ | QQYHRLPLS the result was 2.4 nM (6 of 6 replicates; controls 0 of 18).

The opening 7 entries, copied out:

CDR-L1	CDR-L2	CDR-L3	Kd	detected	empty controls
KFQGMVHMGDRNKNSVA	WASTRLQ	QQYHRLPLS	44 nM	1 of 6	0 of 18
KITATMRFEQKESNNIA	EVTQRSK	QQYYRLPLS	5.6 nM	6 of 6	0 of 18
TIGQMFNGESRMRNSVA	QASTRES	QSYDRLPLS	28 nM	6 of 6	0 of 18
HLHTIMYTEGIGTNSIA	DANLHVT	QQYFRLPIM	18 nM	6 of 6	1 of 18
KLSGSWLYESRVKNNVA	DAHQRES	QMYHRLPLS	22 nM	6 of 6	0 of 18
KLGGEQQNSTYEMDNVA	DVNTTFE	QHYSRLPLT	no signal	0 of 6	1 of 18
KISQMVRVGSTHSNSIA	EEATRSD	QQYHRLPLS	3.4 nM	6 of 6	2 of 18